Patent US20250134864A1, “METHODS OF WEIGHT LOSS AND PRESERVING SKELETAL MUSCLE MASS” (published 2025)
Several values for one entry are separate records, joined by “and”; a condition that tells them apart may be missing. Equal values may be shown once.

Tests used:
[1] = Phase 2a trial: InBody scale measurements of body weight and body composition; conditions: for Mean body weight decrease compared with placebo: 450 mg (high dose)
[2] = Phase 2a trial: glycemic control (glycated albumin, HbA1c) and inflammatory/metabolic markers
[3] = Phase 2a trial: FAST score (Fibroscan and AST); conditions: evident in the lowest dose used (150 mg)
[4] = Phase 2a trial: safety and tolerability
[5] = 150 mg, HbA1c 5.7% to 9.0% Subgroup
[6] = 150 mg, HbA1c 5.7%-9.0% subgroup
[7] = 300 mg (head prints 00 mg), HbA1c 5.7%-9.0% subgroup
[8] = 300 mg, HbA1c 5.7% to 9.0% Subgroup
[9] = 450 mg, HbA1c 5.7% to 9.0% Subgroup
[10] = 450 mg, HbA1c 5.7%-9.0% subgroup
[11] = 300 mg, HbA1c 5.7%-9.0% Subgroup

Cn1c(COc2ccc([N+](=O)[O-])cc2[N+](=O)[O-])cnc1[N+](=O)[O-]
Body Fat Mass, Difference in LS Mean at Day 61 (Compound 1 v. Placebo) ([1]; 150 mg, All Subjects): −1.03 pounds
Body Fat Mass, LS Mean (Day 61 − Baseline), MMRM ([1]; 150 mg, All Subjects): −0.42 pounds
Dry Lean Mass, Difference in LS Mean at Day 61 (Compound 1 v. Placebo) ([1]; 150 mg, All Subjects): 0.15 pounds
Dry Lean Mass, LS Mean (Day 61 − Baseline), MMRM ([1]; 150 mg, All Subjects): −0.12 pounds
Lean Body Mass, Difference in LS Mean at Day 61 (Compound 1 v. Placebo) ([1]; 150 mg, All Subjects): 0.09 pounds
Lean Body Mass, LS Mean (Day 61 − Baseline), MMRM ([1]; 150 mg, All Subjects): −0.80 pounds
Percent Body Fat, Difference in LS Mean at Day 61 (Compound 1 v. Placebo) ([1]; 150 mg, All Subjects): −0.37%
Percent Body Fat, LS Mean (Day 61 − Baseline), MMRM ([1]; 150 mg, All Subjects): −0.08%
Skeletal Muscle Mass, Difference in LS Mean at Day 61 (Compound 1 v. Placebo) ([1]; 150 mg, All Subjects): 0.16
Skeletal Muscle Mass, LS Mean (Day 61 − Baseline), MMRM ([1]; 150 mg, All Subjects): −0.34
Skeletal Muscle Mass, Change from Baseline to Day 61, Mean ([1]; 150 mg, Elevated A1C): 0.63 lbs
Skeletal Muscle Mass, Change from Baseline to Day 61, Median ([1]; 150 mg, Elevated A1C): 0.85 lbs
Body Fat Mass, Change from Baseline to Day 61, Mean ([1]; 150 mg, FAS population): −0.3 lbs
Body Fat Mass, Change from Baseline to Day 61, Median ([1]; 150 mg, FAS population): −0.4 lbs
Body Fat Mass, Day 61, Mean ([1]; 150 mg, FAS population): 95.4 lbs
Body Fat Mass, Day 61, Median ([1]; 150 mg, FAS population): 97.8 lbs
Body Fat Mass, Difference in LS Mean at Day 61 (Compound 1 v. Placebo) [1, 5]: −3.32 pounds
Body Fat Mass, LS Mean (Day 61 − Baseline), MMRM [1, 5]: 1.78 pounds
Dry Lean Mass, Difference in LS Mean at Day 61 (Compound 1 v. Placebo) [1, 5]: 0.67 pounds
Dry Lean Mass, LS Mean (Day 61 − Baseline), MMRM [1, 5]: 0.27 pounds
Lean Body Mass, Difference in LS Mean at Day 61 (Compound 1 v. Placebo) [1, 5]: 1.70 pounds
Lean Body Mass, LS Mean (Day 61 − Baseline), MMRM [1, 5]: 0.72 pounds
Percent Body Fat, Difference in LS Mean at Day 61 (Compound 1 v. Placebo) [1, 5]: −1.05%
Percent Body Fat, LS Mean (Day 61 − Baseline), MMRM [1, 5]: −0.61) Percent
Skeletal Muscle Mass, Difference in LS Mean at Day 61 (Compound 1 v. Placebo) [1, 5]: 1.28
Skeletal Muscle Mass, LS Mean (Day 61 − Baseline), MMRM [1, 5]: 0.57
Body Fat Mass, Change from Baseline to Day 61, Mean [1, 6]: −1.5 lbs
Body Fat Mass, Change from Baseline to Day 61, Median [1, 6]: −1.8 lbs
Body Fat Mass, Day 61, Mean [1, 6]: 107.1 lbs
Body Fat Mass, Day 61, Median [1, 6]: 102.7 lbs
Skeletal Muscle Mass, Change from Baseline to Day 61, Mean ([1]; 150 mg, all subjects): −0.38 lbs
Skeletal Muscle Mass, Change from Baseline to Day 61, Median ([1]; 150 mg, all subjects): 0.30 lbs
Body Fat Mass, Change from Baseline to Day 61, Mean [1, 7]: −3.6 lbs
Body Fat Mass, Change from Baseline to Day 61, Median [1, 7]: −5.1 lbs
Body Fat Mass, Day 61, Mean [1, 7]: 96.2 lbs
Body Fat Mass, Day 61, Median [1, 7]: 97 lbs
Body Fat Mass, Difference in LS Mean at Day 61 (Compound 1 v. Placebo) ([1]; 300 mg, All Subjects): −3.84 pounds
Body Fat Mass, LS Mean (Day 61 − Baseline), MMRM ([1]; 300 mg, All Subjects): −3.23 pounds
Dry Lean Mass, Difference in LS Mean at Day 61 (Compound 1 v. Placebo) ([1]; 300 mg, All Subjects): 0.12 pounds
Dry Lean Mass, LS Mean (Day 61 − Baseline), MMRM ([1]; 300 mg, All Subjects): −0.15 pounds
Lean Body Mass, Difference in LS Mean at Day 61 (Compound 1 v. Placebo) ([1]; 300 mg, All Subjects): 0.03 pounds
Lean Body Mass, LS Mean (Day 61 − Baseline), MMRM ([1]; 300 mg, All Subjects): −0.86 pounds
Percent Body Fat, Difference in LS Mean at Day 61 (Compound 1 v. Placebo) ([1]; 300 mg, All Subjects): −1.03%
Percent Body Fat, LS Mean (Day 61 − Baseline), MMRM ([1]; 300 mg, All Subjects): −0.74%
Skeletal Muscle Mass, Difference in LS Mean at Day 61 (Compound 1 v. Placebo) ([1]; 300 mg, All Subjects): −0.03
Skeletal Muscle Mass, LS Mean (Day 61 − Baseline), MMRM ([1]; 300 mg, All Subjects): −0.54
Skeletal Muscle Mass, Change from Baseline to Day 61, Mean ([1]; 300 mg, Elevated A1C): 0.03 lbs
Skeletal Muscle Mass, Change from Baseline to Day 61, Median ([1]; 300 mg, Elevated A1C): 0.00 lbs
Body Fat Mass, Change from Baseline to Day 61, Mean ([1]; 300 mg, FAS population): −3.3 lbs
Body Fat Mass, Change from Baseline to Day 61, Median ([1]; 300 mg, FAS population): −2.6 lbs
Body Fat Mass, Day 61, Mean ([1]; 300 mg, FAS population): 91.9 lbs
Body Fat Mass, Day 61, Median ([1]; 300 mg, FAS population): 96.6 lbs
Body Fat Mass, Difference in LS Mean at Day 61 (Compound 1 v. Placebo) [1, 8]: −4.90 pounds
Body Fat Mass, LS Mean (Day 61 − Baseline), MMRM [1, 8]: −3.36 pounds
Dry Lean Mass, Difference in LS Mean at Day 61 (Compound 1 v. Placebo) [1, 8]: 0.54 pounds
Dry Lean Mass, LS Mean (Day 61 − Baseline), MMRM [1, 8]: 0.13 pounds
Lean Body Mass, Difference in LS Mean at Day 61 (Compound 1 v. Placebo) [1, 8]: 1.13 pounds
Lean Body Mass, LS Mean (Day 61 − Baseline), MMRM [1, 8]: 0.15 pounds
Percent Body Fat, Difference in LS Mean at Day 61 (Compound 1 v. Placebo) [1, 8]: −1.35%
Percent Body Fat, LS Mean (Day 61 − Baseline), MMRM [1, 8]: −0.91%
Skeletal Muscle Mass, Difference in LS Mean at Day 61 (Compound 1 v. Placebo) [1, 8]: 0.68
Skeletal Muscle Mass, LS Mean (Day 61 − Baseline), MMRM [1, 8]: −0.02
Skeletal Muscle Mass, Change from Baseline to Day 61, Mean ([1]; 300 mg, all subjects): −0.43 lbs
Skeletal Muscle Mass, Change from Baseline to Day 61, Median ([1]; 300 mg, all subjects): −0.70 lbs
Mean body weight decrease compared with placebo ([1]; Day 61, all participants): 6 pounds
Mean body weight decrease compared with placebo ([1]; Day 61, subgroup with elevated HbA1c): 10 pounds
Skeletal muscle mass (and lean body mass and dry lean mass) ([1]; 450 mg group, Day 61, compared with placebo): remained unchanged
Body Fat Mass, Difference in LS Mean at Day 61 (Compound 1 v. Placebo) ([1]; 450 mg, All Subjects): −5.95 pounds
Body Fat Mass, LS Mean (Day 61 − Baseline), MMRM ([1]; 450 mg, All Subjects): −5.34 pounds
Dry Lean Mass, Difference in LS Mean at Day 61 (Compound 1 v. Placebo) ([1]; 450 mg, All Subjects): 0.18 pounds
Dry Lean Mass, LS Mean (Day 61 − Baseline), MMRM ([1]; 450 mg, All Subjects): −0.09 pounds
Lean Body Mass, Difference in LS Mean at Day 61 (Compound 1 v. Placebo) ([1]; 450 mg, All Subjects): 0.25 pounds
Lean Body Mass, LS Mean (Day 61 − Baseline), MMRM ([1]; 450 mg, All Subjects): −0.64 pounds
Percent Body Fat, Difference in LS Mean at Day 61 (Compound 1 v. Placebo) ([1]; 450 mg, All Subjects): −1.49%
Percent Body Fat, LS Mean (Day 61 − Baseline), MMRM ([1]; 450 mg, All Subjects): −1.19%
Skeletal Muscle Mass, Difference in LS Mean at Day 61 (Compound 1 v. Placebo) ([1]; 450 mg, All Subjects): 0.04
Skeletal Muscle Mass, LS Mean (Day 61 − Baseline), MMRM ([1]; 450 mg, All Subjects): −0.46
Skeletal Muscle Mass, Change from Baseline to Day 61, Mean ([1]; 450 mg, Elevated A1C): −0.03 lbs
Skeletal Muscle Mass, Change from Baseline to Day 61, Median ([1]; 450 mg, Elevated A1C): 0.70 lbs
Body Fat Mass, Change from Baseline to Day 61, Mean ([1]; 450 mg, FAS population): −5.3 lbs
Body Fat Mass, Change from Baseline to Day 61, Median ([1]; 450 mg, FAS population): −5.2 lbs
Body Fat Mass, Day 61, Mean ([1]; 450 mg, FAS population): 97.7 lbs
Body Fat Mass, Day 61, Median ([1]; 450 mg, FAS population): 105.3 lbs
Body Fat Mass, Difference in LS Mean at Day 61 (Compound 1 v. Placebo) [1, 9]: −10.57 pounds
Body Fat Mass, LS Mean (Day 61 − Baseline), MMRM [1, 9]: −9.02 pounds
Dry Lean Mass, Difference in LS Mean at Day 61 (Compound 1 v. Placebo) [1, 9]: 0.61 pounds
Dry Lean Mass, LS Mean (Day 61 − Baseline), MMRM [1, 9]: 0.21 pounds
Lean Body Mass, Difference in LS Mean at Day 61 (Compound 1 v. Placebo) [1, 9]: 0.91 pounds
Lean Body Mass, LS Mean (Day 61 − Baseline), MMRM [1, 9]: −0.07 pounds
Percent Body Fat, Difference in LS Mean at Day 61 (Compound 1 v. Placebo) [1, 9]: −2.64%
Percent Body Fat, LS Mean (Day 61 − Baseline), MMRM [1, 9]: −2.20%
Skeletal Muscle Mass, Difference in LS Mean at Day 61 (Compound 1 v. Placebo) [1, 9]: 0.76
Skeletal Muscle Mass, LS Mean (Day 61 − Baseline), MMRM [1, 9]: 0.05
Body Fat Mass, Change from Baseline to Day 61, Mean [1, 10]: −9 lbs
Body Fat Mass, Change from Baseline to Day 61, Median [1, 10]: −8 lbs
Body Fat Mass, Day 61, Mean [1, 10]: 97.8 lbs
Body Fat Mass, Day 61, Median [1, 10]: 110.2 lbs
Skeletal Muscle Mass, Change from Baseline to Day 61, Mean ([1]; 450 mg, all subjects): −0.47 lbs
Skeletal Muscle Mass, Change from Baseline to Day 61, Median ([1]; 450 mg, all subjects): −0.20 lbs
Lean body mass ([1]; Compound 1 treatment, Day 61): Lean body mass was preserved
Muscle mass from base line ([1]; participants with elevated HbA1c (>5.7 at baseline)): no reduction of muscle mass was observed from base line
Percent Glycated Albumin, Change from Baseline to Day 61, Mean ([2]; 150 mg, FAS population): −0.18%
Percent Glycated Albumin, Change from Baseline to Day 61, Median ([2]; 150 mg, FAS population): 0.1%
Percent Glycated Albumin, Change from Baseline to Day 61, Mean [2, 6]: −0.78%
Percent Glycated Albumin, Change from Baseline to Day 61, Median [2, 6]: 0.15%
Percent Glycated Albumin, Change from Baseline to Day 61, Mean ([2]; 300 mg, FAS population): −0.66%
Percent Glycated Albumin, Change from Baseline to Day 61, Median ([2]; 300 mg, FAS population): −0.55%
Percent Glycated Albumin, Change from Baseline to Day 61, Mean [2, 11]: −0.36%
Percent Glycated Albumin, Change from Baseline to Day 61, Median [2, 11]: −0.2%
Percent Glycated Albumin, Change from Baseline to Day 61, Mean ([2]; 450 mg, FAS population): −1.49%
Percent Glycated Albumin, Change from Baseline to Day 61, Median ([2]; 450 mg, FAS population): −1.25%
Percent Glycated Albumin, Change from Baseline to Day 61, Mean [2, 10]: −1.73%
Percent Glycated Albumin, Change from Baseline to Day 61, Median [2, 10]: −1.7%
Inflammatory and metabolic markers ([2]; 61-day study): Significant reductions
FAST score [3]: improves the FAST score
Subjects who discontinued early ([4]; all Compound 1 doses (150 mg n=2, 300 n=1)): 3
Diarrhea, share of Compound 1 subjects ([4]; all Compound 1 doses, 61 days): 25% and 35%
Flushing, share of Compound 1 subjects ([4]; all Compound 1 doses, 61 days): 31.6% and 25%
Tolerability ([4]; all dose levels): well-tolerated at all dose levels
